The target in data set [1] is T1, SSTR3 (Homo sapiens, UniProt P32745).
Data set [2] addresses T2, SSTR5 (Homo sapiens, UniProt P35346).
The target of data set [3] is T3, SSTR1 (Homo sapiens, UniProt P30872).
A short description of data set [4]: Pharmacokinetics test with rats (intravenous and subcutaneous administration). The settings on record: rats; for BA: subcutaneous vs intravenous.
Data set [5] deals with T3, SSTR1. Description: Agonist activity evaluation (cAMP production suppression), SSTR1 receptor expression cells. The following applies: Table 3E, Example 67-4; read-out: IC50 of the agonist activity, SSTR1. The format is cell-based.
Data set [6] concerns the target T4, SSTR2 (Homo sapiens, UniProt P30874).
In data set [7] the target is T2, SSTR5. Description: Competitive binding assay, SSTR5. The following applies: Table 3B, Example 67-2, competitive binding assay; for IC50: read-out: SSTR5 IC50.
The target in data set [8] is T1, SSTR3. Nature of the data set: Competitive binding assay, SSTR3. The settings on record: Table 3B, Example 67-2, competitive binding assay; for IC50: read-out: SSTR3 IC50; for Ki: read-out: SSTR3 Ki.
Data set [9] deals with growth hormone (GH) production. Description: GH production suppression test with rats. The format is in vivo.
For data set [10], the target named is T4, SSTR2. Description: Competitive binding assay, SSTR2. The following applies: Table 3B, Example 67-2, competitive binding assay; for IC50: read-out: SSTR2 IC50; for Ki: read-out: SSTR2 Ki.
The target in data set [11] is T3, SSTR1. Description: Competitive binding assay, SSTR1. The following applies: read-out: SSTR1 Ki; Table 3B, Example 67-2, competitive binding assay.
In data set [12] the target is SSTR4 (Homo sapiens, UniProt P31391). Description: Agonist activity evaluation (cAMP production suppression), SSTR4 receptor expression cells. The format is cell-based. The settings on record: Table 3E, Example 67-4; read-out: IC50 of the agonist activity, SSTR4. (Cyclic AMP is a second messenger, typically raised through Gs and lowered through Gi signalling.)
Data set [13] has as its target T2, SSTR5. Nature of the data set: Agonist activity evaluation (cAMP production suppression), SSTR5 receptor expression cells. The format is cell-based. Also noted: host or cells: CHO-K1 cells. The settings on record: Table 3E, Example 67-4; read-out: IC50 of the agonist activity, SSTR5.
The target in data set [14] is T4, SSTR2. Description: Agonist activity evaluation (cAMP production suppression), SSTR2 receptor expression cells. Also on record: host or cells: CHO-K1 cells. It counts as cell-based. The following applies: Table 3E, Example 67-4; read-out: IC50 of the agonist activity, SSTR2.
Data set [15] deals with T1, SSTR3. Nature of the data set: Agonist activity evaluation (cAMP production suppression), SSTR3 receptor expression cells. Also noted: host or cells: CHO-K1 cells. It counts as cell-based. The settings on record: Table 3E, Example 67-4; read-out: IC50 of the agonist activity, SSTR3.
Where [16] appears, read: Table 8 (Example 87), dose 10 nmol/kg, vehicle 1012.
Setting [17] is: Table 8 (Example 87), dose 1 nmol/kg, vehicle 1012.
The mark [18] stands for this setting: Table 7 (Example 86), subcutaneous, dose 10 nmol/kg, 1 hour before GRF, plasma GH 5 minutes after GRF, vehicle 861.
[19] abbreviates: Table 5A (Examples 69-72), spread in the line below.
[20] abbreviates: BA=(AUC(sc)/Dose(sc))/(AUC(iv)/Dose(iv)), Table 5A.
Setting [21] is: Examples 69-72 (text on Table 5A).

Amino acid sequences for entries named in this document (tags omitted). A change or cut given only in a name is not applied to a line headed by its entry.
UniProt P32745: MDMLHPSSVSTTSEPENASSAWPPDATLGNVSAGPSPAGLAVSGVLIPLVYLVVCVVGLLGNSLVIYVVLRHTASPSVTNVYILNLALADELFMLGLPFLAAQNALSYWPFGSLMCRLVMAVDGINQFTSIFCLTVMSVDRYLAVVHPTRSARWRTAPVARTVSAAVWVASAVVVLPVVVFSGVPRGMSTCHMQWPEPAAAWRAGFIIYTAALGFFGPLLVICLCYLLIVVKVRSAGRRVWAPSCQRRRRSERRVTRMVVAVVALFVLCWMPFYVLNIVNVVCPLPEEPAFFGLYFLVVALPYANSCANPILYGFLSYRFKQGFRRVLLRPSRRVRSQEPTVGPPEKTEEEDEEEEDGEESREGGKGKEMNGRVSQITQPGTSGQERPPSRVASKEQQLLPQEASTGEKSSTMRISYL
UniProt P35346: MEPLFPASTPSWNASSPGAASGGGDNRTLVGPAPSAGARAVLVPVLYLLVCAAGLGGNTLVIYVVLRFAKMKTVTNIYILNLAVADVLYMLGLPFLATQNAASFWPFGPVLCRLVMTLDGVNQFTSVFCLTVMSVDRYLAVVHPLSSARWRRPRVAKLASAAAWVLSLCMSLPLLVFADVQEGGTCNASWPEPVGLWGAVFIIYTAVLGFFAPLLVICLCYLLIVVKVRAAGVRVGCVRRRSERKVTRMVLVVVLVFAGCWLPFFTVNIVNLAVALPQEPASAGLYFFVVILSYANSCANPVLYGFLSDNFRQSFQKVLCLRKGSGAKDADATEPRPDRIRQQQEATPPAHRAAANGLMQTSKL
UniProt P30872: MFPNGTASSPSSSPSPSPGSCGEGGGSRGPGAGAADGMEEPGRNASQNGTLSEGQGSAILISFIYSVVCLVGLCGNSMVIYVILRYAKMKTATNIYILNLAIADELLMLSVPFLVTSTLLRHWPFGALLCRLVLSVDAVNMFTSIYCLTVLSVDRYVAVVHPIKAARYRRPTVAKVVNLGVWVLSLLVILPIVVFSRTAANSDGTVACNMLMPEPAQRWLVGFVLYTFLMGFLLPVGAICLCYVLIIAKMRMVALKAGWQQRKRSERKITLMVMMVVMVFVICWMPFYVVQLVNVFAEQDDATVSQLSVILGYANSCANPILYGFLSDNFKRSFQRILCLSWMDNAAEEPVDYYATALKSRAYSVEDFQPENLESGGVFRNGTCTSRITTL
UniProt P30874: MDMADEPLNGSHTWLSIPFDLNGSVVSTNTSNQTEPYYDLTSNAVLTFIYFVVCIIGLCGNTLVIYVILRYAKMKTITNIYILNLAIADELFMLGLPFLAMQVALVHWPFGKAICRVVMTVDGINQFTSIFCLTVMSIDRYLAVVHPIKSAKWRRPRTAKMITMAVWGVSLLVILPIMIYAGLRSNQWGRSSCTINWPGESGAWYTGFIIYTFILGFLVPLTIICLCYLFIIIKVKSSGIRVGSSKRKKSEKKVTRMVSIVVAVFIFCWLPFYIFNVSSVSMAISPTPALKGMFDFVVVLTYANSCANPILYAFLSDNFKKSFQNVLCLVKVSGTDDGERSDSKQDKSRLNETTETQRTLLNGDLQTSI
UniProt P31391: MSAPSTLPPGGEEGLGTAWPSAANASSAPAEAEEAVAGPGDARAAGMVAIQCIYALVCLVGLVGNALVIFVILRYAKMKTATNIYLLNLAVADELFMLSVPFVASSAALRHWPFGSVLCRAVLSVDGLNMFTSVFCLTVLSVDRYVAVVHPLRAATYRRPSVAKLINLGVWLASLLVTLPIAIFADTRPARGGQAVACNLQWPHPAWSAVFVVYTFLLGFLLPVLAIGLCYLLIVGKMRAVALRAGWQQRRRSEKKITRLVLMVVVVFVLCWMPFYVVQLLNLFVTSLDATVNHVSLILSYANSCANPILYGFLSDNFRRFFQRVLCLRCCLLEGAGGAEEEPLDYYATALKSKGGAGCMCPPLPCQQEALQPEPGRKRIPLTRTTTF

Read-outs that look alike come from different tables or passages of the source.

For the substance N19C(disialo)-SRIF28 [Example 10], in [1], half-maximal inhibition (IC50) was put at 1.17 nM and the affinity corresponds to a Ki of 0.603 nM. In [2], this substance showed an IC50 of 3.69 nM and a Ki of 2.09 nM. In data set [3], this substance came in with an IC50 of 15.1 nM and an inhibition constant Ki of 13.3 nM. Besides, in data set [4] (Tables 5B-5F (Examples 73-84)), the “Intravenous administration C0” value was 407 nM, the “Intravenous administration MRT” value is given as 21.5 min, the “Intravenous administration T1/2” value is reported as 18.8 min and the “Subcutaneous administration Cmax” value was found to be 41.7 nM. In data set [4] (Tables 5B-5F (Examples 73-84)), the “Subcutaneous administration MRT” value was 55.3 min and the “Subcutaneous administration T1/2” value was 37.9 min. The IC50 in data set [5] came to 22 nM. In [6], this substance showed an IC50 of 1.21 nM and a Ki of 0.615 nM.

Regarding S1C(disialo(Bn))-SRIF28 [Example 59], the IC50 in data set [7] is 3.25 nM; in data set [8], 2.15 nM; in data set [5] it was 1.4 nM; in data set [10], 0.247 nM. Also, the values for the Ki in data set [7] (read-out: SSTR5 Ki), in [8] and in data set [10] were 1.83 nM, 0.733 nM and 0.13 nM, respectively. Besides, the “GH” value in data set [9] (setting [16]) was 49 ng/mL. Besides, the BA in data set [4] (Tables 5B-5F (Examples 73-84)) worked out at 28%.

On to “S1C(disialo)-D-Trp22-SRIF28 [Example 15]”, for which, in data set [1], the IC50 was 0.834 nM and the Ki turned out to be 0.285 nM. In data set [2], this substance showed an IC50 of 0.565 nM and an inhibition constant (Ki) of 0.319 nM. In addition, in data set [9] (Table 8 (Example 87), dose 0.3 nmol/kg, vehicle 1012), the “GH” value is listed as 986 ng/mL. Moreover, the “GH” value in data set [9] (setting [17]) stood at 335 ng/mL. In addition, the “GH” value in data set [9] (Table 8 (Example 87), dose 3 nmol/kg, vehicle 1012) is given as 50 ng/mL. Besides, in data set [9] (setting [16]), the “GH” value worked out at 6 ng/mL. Also, the “GH” value in [9] (Table 8 (Example 87), dose 30 nmol/kg, vehicle 1012) is 2 ng/mL. In data set [3], this substance gave an IC50 of 2.23 nM and a Ki of 1.85 nM. In data set [4] (Tables 5B-5F (Examples 73-84)), the “Intravenous administration AUC” value is 4924 nM·min, the “Intravenous administration C0” value is 588 nM, the “Intravenous administration MRT” value was 20.6 min and the “Intravenous administration T1/2” value stood at 18.3 min. Further, in data set [4] (Tables 5B-5F (Examples 73-84)), the “Subcutaneous administration AUC” value worked out at 2220 nM·min, the “Subcutaneous administration Cmax” value is reported as 34.0 nM, the “Subcutaneous administration MRT” value is on record as 51.9 min and the “Subcutaneous administration T1/2” value worked out at 31.0 min. Besides, the BA in data set [4] (Tables 5B-5F (Examples 73-84)) turned out to be 45%. The IC50 in data set [5] was 3.5 nM. Also, in data set [6], the IC50 came out at 0.0324 nM and the Ki was determined as 0.0172 nM.

On to S1C(disialo)-SRIF28-amido [Example 42], for which the half-maximal inhibitory concentration (IC50) in [7] was 3.75 nM; in data set [8], 5.91 nM; in [5], 1.7 nM; in [10] it was 1.32 nM. The inhibitory constant (Ki) in data set [8] stood at 2.02 nM; in data set [11] it was 4.03 nM; in data set [10], 0.7 nM.

As to “S1C(disialo).N5C(disialo)-SRIF28 [Example 21]”, the concentration for half-maximal inhibition (IC50) came out at 1.58 nM in [1]; 0.728 nM in data set [2]; 0.041 nM in [12]; 0.09 nM in data set [13]; 0.072 nM in data set [14]; 6.89 nM in [3]. Moreover, the IC50 in data set [6] worked out at 0.224 nM; in data set [15], 0.37 nM. For the same substance, the Ki came to 0.539 nM in [1], 0.411 nM in data set [2], 5.7 nM in [3] and 0.119 nM in data set [6]. The “GH” value in data set [9] (Table 7 (Example 86), subcutaneous, dose 1 nmol/kg, 1 hour before GRF, plasma GH 5 minutes after GRF, vehicle 861) was 776 ng/mL; in [9] (setting [18]), 181 ng/mL; in [9] (setting [17]), 776 ng/mL; in [9] (setting [16]) it was 181 ng/mL. Also, the “Intravenous administration AUC” value in data set [4] (setting [19]) stood at 4099 nM·min. The “Intravenous administration C0” value in [4] (setting [19]) is recorded as 558 nM. Besides, the “Intravenous administration MRT” value in data set [4] (setting [19]) was determined as 24.6 min. The “Intravenous administration t1/2” value in [4] (setting [19]) amounted to 25.8 min. For the same substance, the “Subcutaneous administration AUC” value in [4] (setting [19]) stood at 3344 nM·min. In addition, the “Subcutaneous administration Cmax” value in data set [4] (setting [19]) is recorded as 35.5 nM. Also, the “Subcutaneous administration MRT” value in data set [4] (setting [19]) is 67.9 min. In data set [4] (setting [19]), the “Subcutaneous administration t1/2” value stood at 38.4 min. Moreover, the BA in data set [4] (setting [20]) is 82%.

Consider “S1C(disialo).N5C(disialo).A9C(disialo)-SRIF28 [Example 25]”, for which, in data set [1], it took 7.93 nM to reach half-maximal inhibition (IC50) and the affinity, expressed as Ki, was 2.71 nM. In data set [2], this substance registered an IC50 of 4.14 nM and a Ki of 2.34 nM. In addition, in [12], the IC50 turned out to be 0.16 nM. In addition, in data set [13], the IC50 worked out at 1.1 nM. In addition, the IC50 in data set [14] worked out at 1.4 nM. For the same substance, the “GH” value in data set [9] (setting [18]) was determined as 833 ng/mL. The “GH” value in data set [9] (Table 7 (Example 86), subcutaneous, dose 100 nmol/kg, 1 hour before GRF, plasma GH 5 minutes after GRF, vehicle 861) is reported as 151 ng/mL. Besides, the “GH” value in [9] (Table 8 (Example 87), dose 100 nmol/kg, vehicle 1012) is on record as 151 ng/mL. In data set [3], this substance registered an IC50 of 69.2 nM and a Ki of 57.3 nM. Besides, in data set [4] (setting [19]), the “Intravenous administration AUC” value is 4402 nM·min, the “Intravenous administration C0” value is on record as 938 nM, the “Intravenous administration MRT” value amounted to 25.8 min and the “Intravenous administration t1/2” value turned out to be 39.8 min. In addition, in data set [4] (setting [19]), the “Subcutaneous administration AUC” value came out at 4015 nM·min, the “Subcutaneous administration Cmax” value came to 24.8 nM, the “Subcutaneous administration MRT” value was determined as 132 min and the “Subcutaneous administration t1/2” value amounted to 87.4 min. Moreover, the BA in data set [4] (setting [20]) turned out to be 91%. Moreover, in data set [4] (setting [21]), the “AUC for intravenous administration” value was 4402 nM·min and the “bioavailability (BA), subcutaneous administration” value is given as 91%. In data set [6], 0.985 nM corresponded to half-maximal inhibition (IC50) and the affinity corresponds to a Ki of 0.523 nM. Moreover, in data set [15], the IC50 was 2.4 nM.

A word on the IC50: it is the concentration needed to halve the response being measured. What is called Ki is a measure of affinity in units of concentration, obtained from inhibition or displacement.
